# Antibody variant affinities, Ab-14 light chain, assay B

Reference: Li et al. 2023, doi:10.1038/s41467-023-39022-2. File: FLAb, binding data.

Target: peptide PDVDLGDISGINAS, taken from heptad repeat 2 (HR2) of SARS-CoV-2 spike.

The variants keep the heavy chain, the linker and the frameworks of Ab-14 (scFv order VH, the linker GGGGSGGGGSGGGGS, VL).
VH: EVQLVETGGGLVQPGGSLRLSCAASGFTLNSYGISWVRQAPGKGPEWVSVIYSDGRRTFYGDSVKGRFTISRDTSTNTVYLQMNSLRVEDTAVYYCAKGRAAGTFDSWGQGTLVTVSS
VL: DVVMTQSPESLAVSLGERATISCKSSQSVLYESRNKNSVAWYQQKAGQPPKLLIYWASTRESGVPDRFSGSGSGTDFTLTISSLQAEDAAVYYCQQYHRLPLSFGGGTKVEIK

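The parent was found by panning a naive human phage display library on the peptide. The variants were designed computationally from a first round of random CDR variants and then made and measured. Group labels follow the data file (Ctrl: baseline library sampled from a position-specific scoring matrix, with some repeated check sequences; En: ensemble of fine-tuned language models; GP: Gaussian process model; HC: hill climbing; Gen: genetic algorithm; Gibbs: Gibbs sampling; a sequence that several methods proposed may carry one label only). The assay is AlphaSeq: two haploid yeast populations carry antibody and antigen on their surface. The frequency of each diploid, read from paired DNA barcodes, reflects how well the two displayed proteins bind. Scores were corrected for input abundance and mapped to Kd with protein pairs of known affinity run in the same pool. Each pool was mated in six replicate cultures.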

Each variant is given by its three light chain CDRs, as the data file delimits them; those of the parent are KSSQSVLYESRNKNSVA, WASTRES, QQYHRLPLS.
Variants here have more than six changes.
Values are apparent Kd, the geometric mean of the replicates that gave a signal; lower means stronger binding.
"no signal" marks a missing value. The strain was present, yet no cells mated with the target were sequenced in any replicate, which points to weak or no binding.
The authors' rule: three or more of the six replicates give a measured affinity, fewer mean a poor binder.
As a blank, each scFv also met three strains without target: over all light chain designs, 4% of these pairings were detected, typically at 430 nM and seldom below 38 nM.
The parent sequence was in this pool as ten entries: three were never detected, three once, and four in most replicates, with averages from 2.2 nM to 240 nM.
The range of this assay differs from that of the first round, and the authors advise against merging the two.

With KLSQEWLMESRNKNQVA / HASTRMS / QQYHRLPLS [GP_Gibbs] the result was 2.5 nM (6 of 6 replicates).
With KIYHGVTGTSRKGNSVA / QAETRLD / QQYHRLPLM [En_HC] the result was 15 nM (5 of 6 replicates).
With HLSLPWQLGHDSTNAVA / NMSTLMT / QQYSRLPLS [En_Gibbs] the result was 6.8 nM (6 of 6 replicates).
With KLEQLYDYGSRNKNSVA / QASTRES / QQYHRLPLS [GP_Gibbs] the result was 730 pM (6 of 6 replicates).
With HLAVNMTYLDSSKYHVA / NASDREP / QYYNRLPLS [En_Gibbs] the result was 450 nM (2 of 6 replicates).
With KLMQSPEYESRNKNSVA / NASQREE / QQYHRLPLS [GP_Gibbs] the result was 3.8 nM (6 of 6 replicates).
With KLSGIMRVEMKNKSNIA / EMTTRGS / QQYDRLPLS [En_Gen] the result was 36 nM (6 of 6 replicates).
With MISNEQDYNYSADNSVA / DVTEKCN / QQYKRLPLT [En_Gibbs] the result was 93 nM (3 of 6 replicates).
With KLYSVTGTEKVNGNNVA / EMETREK / QQYNRLPLS [En_Gen] the result was 2.6 nM (6 of 6 replicates).
With KLGAATRFESSNEASIA / NNSTREE / QQYHRLPLS [En_HC] the result was 270 nM (4 of 6 replicates).
With IVSQLMLWGMHHKNSIA / EAETRIN / QQYDRLPLF [En_Gen] the result was 220 nM (3 of 6 replicates).
With NVDISANVGYNHKAAVA / EHDERVG / QQYYRLPLA [En_Gibbs] the result was 1.6 nM (6 of 6 replicates).
With KVSPSVQYEDRNCNAVA / QASQRES / QQYHRLPLS [GP_Gibbs] the result was 1.2 nM (6 of 6 replicates).
With KISQSIAFMSGNKNAIA / QMEMREE / QQYHRLPLS [En_HC] the result was 3.2 nM (6 of 6 replicates).
With KVSQSEPYEERNKNNVA / NASTRMS / QQYHRLPLS [GP_Gibbs] the result was 1.1 nM (6 of 6 replicates).
With KVSISWLMSSRNKNQVA / HASTRMS / QQYHRLPLS [GP_Gibbs] the result was 670 nM (4 of 6 replicates).
With ALTAHRLVAIEQKNSIA / NAVMRYQ / QQYAQLPLM [En_Gibbs] the result was 3.4 nM (6 of 6 replicates).
With KLQLGLGEQKNVYYNVA / NESLKTA / QHYFRLPLT [En_Gibbs] the result was 1.1 nM (6 of 6 replicates).
With KLGAWMYWPTEAKYAIA / QDEMRVH / QQYDRLPLI [En_Gibbs] the result was no signal (0 of 6 replicates).
With MLGESYGMMVQKKSSIA / DNSTRED / QQYDRLPLS [En_Gen] the result was 6.7 nM (6 of 6 replicates).
With KLTHNTFVLDRDKYSIA / DSERKME / QQYNQLPLT [En_Gibbs] the result was 6.3 nM (4 of 6 replicates).
With KISQTFNVGTKNTNSLA / EMSTRGF / QDYHRLPLS [En_HC] the result was 1.9 nM (6 of 6 replicates).
With IVSQLMLWGYHATNSIA / EAQMRLN / QQYDRLPLF [En_Gen] the result was no signal (0 of 6 replicates).
With KISGSYLGESRNWNSVA / EASQREQ / QQYHRLPLS [GP_Gibbs] the result was 2.7 nM (6 of 6 replicates).
With KLSISHMVESINKSNVA / EMVTRES / QQYDRLPLS [En_HC] the result was 6.5 nM (6 of 6 replicates).
With MISNVMNTLTRYGNNVA / DLQERED / QQYFRLPLS [En_Gen] the result was 14 nM (6 of 6 replicates).
With KLRHHNLDFYEVENSIA / GESMRAA / QQYYRLPLN [En_Gibbs] the result was 8.1 nM (6 of 6 replicates).
With RFDQWVLESNNTEKSIA / SASNREQ / QQYARLPLF [En_Gibbs] the result was 70 nM (6 of 6 replicates).
With NIEGVEFEMAMHGNSVA / GVDLREA / QQYFRLPLH [En_Gibbs] the result was 3.4 nM (6 of 6 replicates).
With KFSQSVLGETRNYNSVA / WASIRES / QQYDRLPLA [Ctrl] the result was no signal (0 of 6 replicates).
With TISQSFNMTSRGKNSVA / QAEMRES / QQYDRLPLS [En_HC] the result was 3.8 nM (4 of 6 replicates).
With KLPQATMQESVSKNSVA / ELSTRGA / QQYHRLPLS [En_HC] the result was 1.5 nM (6 of 6 replicates).
With KISYQYRFEQLGKNNIA / EVVTRLK / QQYHRLPLS [En_HC] the result was no signal (0 of 6 replicates).
With SIYDATGMESRNKNPIA / DVSTRPE / QQYHRLPLS [En_HC] the result was 1.3 nM (6 of 6 replicates).
With TLGQVTMQLQRNKNSVA / DASTSED / QQYDRLPLS [En_HC] the result was 4.3 nM (6 of 6 replicates).
With KISYLQNQTFEQSNNVA / EMVTRAK / QQYNRLPLS [En_Gen] the result was 2.5 nM (6 of 6 replicates).
With KIEQSVLQEDRNKNSVA / NASQRES / QAYHRLPLS [GP_Gibbs] the result was 2.3 nM (6 of 6 replicates).
With KLAGVTEYEMRNKNSVA / QMTTRES / QQYHRLPLS [En_HC] the result was 7.4 nM (6 of 6 replicates).
With QLENDMTSNQGTRHNIA / EATVIAP / QQYHRLPII [En_Gibbs] the result was 15 nM (6 of 6 replicates).

Excerpt, the first 3 entries:

CDR-L1	CDR-L2	CDR-L3	group	Kd	replicates with signal
KLSQEWLMESRNKNQVA	HASTRMS	QQYHRLPLS	GP_Gibbs	2.5 nM	6/6
KIYHGVTGTSRKGNSVA	QAETRLD	QQYHRLPLM	En_HC	15 nM	5/6
HLSLPWQLGHDSTNAVA	NMSTLMT	QQYSRLPLS	En_Gibbs	6.8 nM	6/6